Earlier results on four molecules are cited in patent US4337760A, “Method for the treatment of tumors with β-glucuronidase activity dependent pharmaceuticals” (Schwimmer; Adolf, priority 1979, dated 1982).

The subject of one data set is trophoblastic cells. The settings on record: reported; cited from earlier work.
For data set [1] the following is noted: in vivo; cited from earlier work.
For data set [2] the following is noted: cited from earlier work.

Regarding estrogen, in the data set with trophoblastic cells, the “β-glucuronidase activity in trophoblastic cells” value is reported as “induce β-glucuronidase activity”.
Consider phenylsulfazole-β-D-glucuronic acid, for which the “migration to the thyroid gland” value in data set [1] is reported as “does not migrate to the thyroid gland”.
For the molecule `Cc1cc([N+](=O)[O-])cc([N+](=O)[O-])c1O`, in data set [2] (alkaline vs acid pH), the pH-dependent solubility entry is “water soluble at alkaline pH's and lipid-soluble at acid pH's”.
For the molecule phenylsulfazole, the solubility in water result in data set [2] (aglycone of the glucuronide of phenylsulfazole) is reported as “not soluble in water”.
